Activity change, negative = substrate turnover data for 36 compounds are collected here from PubChem BioAssay AID588456 (National Center for Advancing Translational Sciences (NCATS), 2011).

Sequences of proteins named here, by UniProt entry; tags and fusion partners are left off.
UniProt O89049, whole entry: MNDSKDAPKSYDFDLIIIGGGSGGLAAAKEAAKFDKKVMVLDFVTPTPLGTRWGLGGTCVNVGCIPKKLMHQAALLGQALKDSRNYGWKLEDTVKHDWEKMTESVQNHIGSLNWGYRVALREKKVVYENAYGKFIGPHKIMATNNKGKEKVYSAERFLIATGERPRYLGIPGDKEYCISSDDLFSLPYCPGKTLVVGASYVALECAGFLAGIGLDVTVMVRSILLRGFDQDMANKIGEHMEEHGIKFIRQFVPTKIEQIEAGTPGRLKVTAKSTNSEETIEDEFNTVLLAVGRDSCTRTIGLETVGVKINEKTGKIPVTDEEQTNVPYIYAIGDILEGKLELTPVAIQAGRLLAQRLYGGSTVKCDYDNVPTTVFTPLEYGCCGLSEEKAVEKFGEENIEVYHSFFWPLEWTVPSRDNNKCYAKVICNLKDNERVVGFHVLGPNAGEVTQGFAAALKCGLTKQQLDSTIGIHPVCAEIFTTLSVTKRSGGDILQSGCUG

The target of this test is Thioredoxin reductase 1, cytoplasmic (Rattus norvegicus) (UniProt O89049). Nature of the test: qHTS Assay for Substrates of Mammalian Selenoprotein Thioredoxin Reductase 1 (TrxR1): qHTS. Also: nearly all actives have a fitted effect of over 50% in size. The note with it: purified TrxR1 substrate turnover, NADPH consumption readout. (In general: Quantitative high-throughput screening tests each substance at several concentrations.)
The mark [1] stands for this setting: at 114 µM (top of the series) unless noted.

Each structure is given as a SMILES string. This is a selection; strong and weak results do not stand in their true shares. Some tests of the compounds listed are not included; inactive here does not mean inactive elsewhere. Activity calls are given as the source filed them. Calls follow the shape of the dose curve; as a rule, active = well fitted inhibition curve with a large enough effect; inconclusive = small, poorly fitted or top-dose-only effect; inactive = no such curve, though single readings can be large or run the other way.
% is scaled to controls: 0 for no effect and ±100 for the full control effect.

For the compound `O=C(NCC1(N2CCCCC2)CCCCC1)c1cc(F)c(F)cc1Cl`, the activity change, negative = substrate turnover under setting [1] is inactive: 8.63% [at 0.0914 µM].

For the compound `C=CCN1CCN(CCOC(=O)C(O)(c2ccccc2)c2ccccc2)CC1`, under setting [1], the activity change, negative = substrate turnover is inactive: -0.723%.

For `CCOc1cccc(C(=O)NCC2(N(C)C)CCCCC2)c1`, under setting [1], the activity change, negative = substrate turnover is inactive: -1.88%.

Take `COc1ccc(C(=O)NCC2(N(C)C)CCCCC2)cc1`: the activity change, negative = substrate turnover under setting [1] is inactive: 3.49%.

Turning to `O=C(NCC1(N2CCCCC2)CCCCC1)c1cccc(Br)c1`, the activity change, negative = substrate turnover under setting [1] was inactive: 3.34%.

Turning to `Cc1cc(C(=O)NCC2(N3CCCCC3)CCCCC2)ccc1[N+](=O)[O-]`, the activity change, negative = substrate turnover under setting [1] is inactive: 9.92%.

With `CCN1CCCC(OC(=O)C2(O)c3ccccc3C=Cc3ccccc32)C1` (configuration not stated), the activity change, negative = substrate turnover under setting [1] was inactive: 12.3% [at 57.1 µM].

For the compound `CN(C)C1CCCC1OC(=O)C(O)(c1ccccc1)c1ccccc1` (configuration not stated), the activity change, negative = substrate turnover under setting [1] is inactive: -5.17%.

With `CN(C)c1ccc(C(=O)NCC2(N(C)C)CCCCC2)cc1`, the activity change, negative = substrate turnover under setting [1] was inactive: 3.07% [at 57.1 µM].

As to `CN(C)C1(CNC(=O)c2ccccc2[N+](=O)[O-])CCCCC1`, the activity change, negative = substrate turnover under setting [1] was inactive: -10.8%.

For `Cc1ccccc1C(=O)NCC1(N2CCCCC2)CCCCC1`, the activity change, negative = substrate turnover under setting [1] was inactive: 0.737%.

Take `CCCCOc1ccccc1C(=O)NCC1(N(C)C)CCCCC1`: under setting [1], the activity change, negative = substrate turnover was inactive: -5.56%.

Regarding `COc1cc(SC)ccc1C(=O)NCC1(N(C)C)CCCCC1`, under setting [1], the activity change, negative = substrate turnover was inactive: 2.78%.

Take `CN(C)C1(CNC(=O)c2cccc(Cl)c2)CCCCC1`: the activity change, negative = substrate turnover under setting [1] is inactive: 2.17%.

With `CCN(CC)CC(C)C(C)OC(=O)C(O)(c1ccccc1)c1ccccc1` (configuration not stated), the activity change, negative = substrate turnover under setting [1] was inactive: -4.06%.

For the compound `CC(C)N1C(=O)CC2(CCN(CCOC(=O)C(O)(c3ccccc3)c3ccccc3)CC2)C1=O`, the activity change, negative = substrate turnover under setting [1] is inactive: 8.28% [at 57.1 µM].

For the compound `Cc1ccc(C(=O)NCC2(N3CCCCC3)CCCCC2)cc1`, the activity change, negative = substrate turnover under setting [1] is inactive: 2.42%.

As to `CN(C)C1(CNC(=O)c2ccccc2F)CCCCC1`, under setting [1], the activity change, negative = substrate turnover is inactive: -4.75%.

As to `O=C(NCC1(N2CCCCC2)CCCCC1)c1cc([N+](=O)[O-])ccc1Cl`, the activity change, negative = substrate turnover under setting [1] is inactive: 3.5%.

For the compound `CN1[C@@H]2CC[C@H]1CC(OC(=O)C(O)(c1ccccc1)c1ccccc1)C2` (some centres not stated), the activity change, negative = substrate turnover under setting [1] was inactive: -4.86%.

For the compound `COc1ccc(Br)c(C(=O)NCC2(N3CCCCC3)CCCCC2)c1`, the activity change, negative = substrate turnover under setting [1] was inactive: -0.115%.

On to `Cc1cccc(C(=O)NCC2(N(C)C)CCCCC2)c1`, for which the activity change, negative = substrate turnover under setting [1] was inactive: 1.86%.

As to `COc1cc(C(=O)NCC2(N(C)C)CCCCC2)cc(OC)c1OC`, under setting [1], the activity change, negative = substrate turnover was inactive: 27.4%.

As for `O=C(OCCN1CCCC1)C(O)(c1ccccc1)c1ccccc1`, the activity change, negative = substrate turnover under setting [1] was inactive: 11.5% [at 57.1 µM].

With `CC(C)Oc1ccc(C(=O)NCC2(N(C)C)CCCCC2)cc1`, the activity change, negative = substrate turnover is, setting by setting: (at 57.1 µM (top of the series)) inactive: 12.1%; (at 114 µM (top of the series)) inactive: -2.2%.

For the compound `CN(C)c1cccc(C(=O)NCC2(N(C)C)CCCCC2)c1`, the activity change, negative = substrate turnover under setting [1] was inactive: 7.37% [at 57.1 µM].

As to `COc1cccc(C(=O)NCC2(N3CCOCC3)CCCCC2)c1`, under setting [1], the activity change, negative = substrate turnover is inactive: -4.1%.

In the case of `O=C(OC1CN2CCC1CC2)C(CO)(c1ccccc1)c1ccccc1` (configuration not stated), the activity change, negative = substrate turnover under setting [1] is inactive: -6.33%.

`CC(C)COc1ccc(C(=O)NCC2(N(C)C)CCCCC2)cc1`: under setting [1], the activity change, negative = substrate turnover is inactive: -0.587%.

In the case of `COc1ccc(Cl)cc1C(=O)NCC1(N(C)C)CCCCC1`, the activity change, negative = substrate turnover under setting [1] is inactive: -0.449% [at 57.1 µM].

Take `COc1cccc(C(=O)NCC2(N3CCCCC3)CCCCC2)c1`: the activity change, negative = substrate turnover under setting [1] was inactive: 7.76%.

As for `COc1ccc(C(=O)NCC2(N(C)C)CCCCC2)cc1Cl`, the activity change, negative = substrate turnover under setting [1] is inactive: -1.94%.

For `O=C(NCC1(N2CCCCC2)CCCCC1)c1cccc(Cl)c1`, under setting [1], the activity change, negative = substrate turnover was inactive: 1.78%.

As to `O=C(CBr)c1ccc(Cl)cc1`, the activity change, negative = substrate turnover under setting [1] was inactive: 3.16%.

As to `CN(C)C1(CNC(=O)c2ccc(Br)cc2)CCCCC1`, the activity change, negative = substrate turnover under setting [1] was inactive: 10.8%.

In the case of `COc1cc(C(=O)NCC2(N(C)C)CCCCC2)c([N+](=O)[O-])cc1OC`, the activity change, negative = substrate turnover under setting [1] is inactive: -9.38%.
